This passage reports Activity results from ChEMBL document CHEMBL5335817, “Discovery and optimization of (2-naphthylthio)acetic acid derivative as selective Bfl-1 inhibitor” (Bioorg Med Chem Lett, 2024).

Calls of active or inactive are those of the source. The rule behind the calls is not given here.

The assay has as its target T1, Bcl-2-related protein A1 (Homo sapiens) (UniProt Q16548).
T1 sequence (whole entry): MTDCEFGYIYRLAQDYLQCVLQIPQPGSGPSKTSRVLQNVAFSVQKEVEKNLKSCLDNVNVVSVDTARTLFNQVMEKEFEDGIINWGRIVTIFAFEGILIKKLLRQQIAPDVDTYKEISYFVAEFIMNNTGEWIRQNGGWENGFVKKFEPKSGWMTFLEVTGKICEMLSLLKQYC
Description: Binding affinity to intact Bfl-1 (unknown origin) assessed as adduct formation incubated for 1 hrs by high resolution mass spectrum analysis.

In the case of `O=C(O)CSc1cc(NS(=O)(=O)c2ccc(Br)cc2)c2ccccc2c1O`, the result was inactive.
